Binding of CDR-mutated scFvs to a peptide of the spike HR2 region

Target: peptide PDVDLGDISGINAS, taken from heptad repeat 2 (HR2) of SARS-CoV-2 spike.

Parent scFv Ab-14: VH joined to VL by a 15-residue (Gly4Ser)3 linker. Changes lie in the light chain CDRs alone.
VH: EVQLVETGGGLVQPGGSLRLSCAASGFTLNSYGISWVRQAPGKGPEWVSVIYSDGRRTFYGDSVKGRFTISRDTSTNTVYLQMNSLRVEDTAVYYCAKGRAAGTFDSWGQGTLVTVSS
VL: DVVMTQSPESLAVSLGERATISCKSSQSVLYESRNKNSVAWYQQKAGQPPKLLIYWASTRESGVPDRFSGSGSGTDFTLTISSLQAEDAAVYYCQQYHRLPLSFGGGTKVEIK

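These sequences belong to a second round, designed from the earlier measurements on random variants of the parent. Group labels follow the data file (Ctrl: baseline library sampled from a position-specific scoring matrix, with some repeated check sequences; Rand: our label for a block that the file lists under HC and that is probably the random mutants of the ten best first-round binders; En: ensemble of fine-tuned language models; GP: Gaussian process model; HC: hill climbing; Gen: genetic algorithm; Gibbs: Gibbs sampling; a sequence that several methods proposed may carry one label only). The assay is AlphaSeq: two haploid yeast populations carry antibody and antigen on their surface. Binding brings cells together so that they mate, and sequencing counts the barcode pairs among the diploids. A regression on co-assayed BCL2-family reference pairs converts the normalised counts of each replicate to an apparent Kd. There are six technical replicates.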

The parent's light chain CDRs are KSSQSVLYESRNKNSVA, WASTRES, QQYHRLPLS; each variant's own CDRs replace them letter for letter.
Each Kd is an estimate from the mating assay, the geometric mean of the replicates in which the pair was seen; lower is stronger.
Where no diploid with the target was found in any replicate, the entry reads "not detected": below detection, most likely a poor binder, though not proof of it.
In the paper, a design with two or fewer of six values counts as a poor binder.
A sequence that the file lists under several names has all its replicates pooled.
The range of this assay differs from that of the first round, and the authors advise against merging the two.
Three control strains display no target. For all light chain designs, 4% of the pairings with them gave a signal, with a median of 430 nM and one signal in twenty below 38 nM, so weak values seen in few replicates may be background. The control count says in how many pairings with the empty strains this scFv gave a signal.
The parent sequence was in this pool as ten entries: three were never detected, three once, and four in most replicates, with averages from 2.2 nM to 240 nM.

CDR-L1 | CDR-L2 | CDR-L3 | group | Kd | replicates with signal | control signals
KSSQSWLYESRNKNSVA | GASTREM | QQYHRLPLS | GP_HC | 630 pM | 6/6 | 1/18
HLGLVTMSEQAVRNSVA | NNSTREE | QQYDRLPLS | En_Gen | 130 nM | 4/6 | 2/18
KSSQSVLYESRNKNSVA | WASTREY | QQYHVLPLS | Ctrl | not detected | 0/6 | 0/18
HSSPSVLYESRNKNSVA | YASTRES | QQYHRLPLS | GP_HC | 30 nM | 6/6 | 1/18
HILQNMMYESRNINSVA | HQSTRED | QQYHSLPLS | En_HC | 200 nM | 2/6 | 0/18
KSSQSVLYESRNGNHVA | WASTRES | QQYERLPLS | Ctrl | not detected | 0/6 | 0/18
KSSQSVSYESRNENSVA | QASTRES | QQYHRLPLS | Ctrl | 1.8 nM | 6/6 | 0/18
MLTGAPFVGDRDKQSIA | ANEVRMM | QQYYQLPLC | En_Gibbs | 6.5 nM | 6/6 | 5/18
KLSQSNLYESRNKNSVA | EASTREV | QQYHRLPLS | GP_Gen | 610 pM | 6/6 | 0/18
KSSCSGLYESRNKNSVA | EASTRES | QQYHRLPLS | GP_HC | 5.6 nM | 6/6 | 0/18
KLPQSGLYESRNKNSVA | NASTRLS | QQYHRLPLS | GP_Gen | 1.1 nM | 6/6 | 0/18
KESQMWLYESRNKNSVA | GASTRES | QQYHRLPLS | GP_HC | 1.1 nM | 6/6 | 1/18
WLAMEEQPGDRGYSSVA | DADARMA | QQYQRLPLS | En_Gibbs | 4.4 nM | 6/6 | 0/18
KVRQSTLYESRNKNSVA | HASTRES | QQYHRLPLS | GP_HC | 1.2 nM | 6/6 | 0/18
TLHGNIQYGGIMIKSIA | DNVQRAN | QQYYRLPLS | En_Gibbs | 2.7 nM | 6/6 | 0/18
QLFFNDFQLDIESQNIA | HASLRYV | QQYARLPLV | En_Gibbs | 17 nM | 6/6 | 0/18
KSSGSVLYESRNKNSVA | DASTRES | QQYHRLPLS | Ctrl+GP_HC | 4.3 nM | 12/12 | 5/36
KSSNSYLYESMNKNSVA | NGSTRES | QQYHRLPLS | GP_HC | 2.9 nM | 6/6 | 0/18
KIGHGLTTESFNKNSVA | QTETRES | QHYHRLPLS | En_HC | 500 nM | 2/6 | 1/18
KLSQKVLYEGRTKNSVA | NASTRES | QQYHRLPLS | GP_HC | 1.1 nM | 6/6 | 1/18
KFSQSVLYESRTKNSVA | EASTRES | QQYHQLPLS | GP_HC | 1.2 nM | 6/6 | 0/18
KLTHPTDLWLNHVSNIA | DANISVE | QQYYQLPLT | En_Gibbs | 5.6 nM | 6/6 | 1/18
NSSQSWKYESRNKNSVA | GLNTRES | QQYHRLPLS | Rand | 4.7 nM | 6/6 | 1/18
KLPQSTLYESRNKNSVA | LASTRES | QQYHRLPLS | GP_HC | 3.6 nM | 6/6 | 0/18
TISNMFMMENQFKNSVA | QASTRES | QCYDRLPLS | En_HC | 110 nM | 5/6 | 3/18
KLSGSMLYEERNSNSVA | HASHRES | QQYHRLPLS | GP_Gibbs | 2.0 nM | 6/6 | 0/18
KSSASVLYESGNGNSVA | SASTRES | QQYHRLPLS | Ctrl | 1.9 nM | 6/6 | 4/18
KSQQSVLYESMNKNSVA | WASTRES | QQYHRLPLS | Ctrl | 66 nM | 6/6 | 0/18
KSQQSVDYESRNKNSVA | WASTRES | QQYHRLPLS | Ctrl | 56 nM | 6/6 | 2/18
KIGMTLNTLLHKKNNVA | DLVEREN | QQYFRLPLS | En_Gen | 1.8 nM | 6/6 | 1/18
KSEMEVYYGDRNKNSVA | QASTRES | QQYHRLPLS | GP_Gibbs | 450 pM | 6/6 | 1/18
IIDQLMYWGNKHVNSIA | QASQRLN | QQYHHLPLI | En_Gen | not detected | 0/6 | 0/18
RYQMDDNYGKGMRNNVA | DGAEVRM | QQYARLPLL | En_Gibbs | not detected | 0/6 | 0/18
LSSISYLYESPNKNSVA | EASTREE | QQYHRLPLS | GP_HC | 3.6 nM | 6/6 | 1/18
HSSPSCLYESRNKNSVA | NASTRES | QQYHRLPLS | GP_HC | 5.4 nM | 6/6 | 1/18
MISQIYNMGSFAINSVA | QASTRNA | QQYDRLPLM | En_Gen | 22 nM | 6/6 | 0/18
KFSQSWLYESRNKNAVA | NASQRES | QQYHRLPLS | GP_Gen | 600 pM | 6/6 | 0/18
ALTNEPESVDHHLNNVA | STSKRCM | QQYARLPLS | En_Gibbs | 1.4 nM | 6/6 | 1/18

Continued, with the values leading:

Kd | replicates with signal | control signals | CDR-L1 | CDR-L2 | CDR-L3 | group
3.1 nM | 6/6 | 2/18 | ILQQLMLYESRMKNSVA | NASQRWS | QQYHRLPLS | GP_Gibbs
78 nM | 1/6 | 0/18 | WSSQSWLYESRTYNSVA | YASTRES | QQYHRLPLS | Rand
not detected | 0/6 | 1/18 | KSSGSVLYESRNLNDVA | WASTRHS | QQYHRLPLS | Ctrl
60 nM | 6/6 | 2/18 | KIQHTHVGNEKKMENIA | QGDQRCQ | QSYDRLPLS | En_Gibbs
5.5 nM | 6/6 | 0/18 | HITYGMMIAGRHSSSIA | QAETRAK | QQYDRLPLM | En_Gen
640 pM | 6/6 | 0/18 | KLQQSFLYESRNKNSVA | NASYRES | QQYHRLPLS | GP_Gen
140 nM | 5/6 | 2/18 | KMSVHLYDAKNRDMSIA | DEELHTV | QQYNRLPFS | En_Gibbs
2.1 nM | 6/6 | 1/18 | KASQSVLYTSRNKNSVA | GASTRED | QQYHRLPLS | Ctrl
12 nM | 6/6 | 0/18 | KAQQSNPYESRNKWSVA | NASTREK | QQYHRLPLS | GP_Gibbs
not detected | 0/6 | 1/18 | KSSGSVLWESRNKNSVA | WASTRES | QQYHRLPLS | Ctrl
not detected | 0/6 | 0/18 | KLSQSVLYTSRNHNSVA | WASTRES | QQPHRLPLS | Ctrl
14 nM | 6/6 | 3/18 | KSSQSCLYESRNKNSLA | DASCRES | QQYHRLPLS | Ctrl
300 pM | 6/6 | 0/18 | KSPISFLYESRNKNSVA | EASTRES | QQYHRLPLS | GP_HC
4.8 nM | 6/6 | 0/18 | LSSISYLYESPNKNSVA | EASTREL | QQYHRLPLS | GP_HC
110 nM | 5/6 | 0/18 | KSSQSVLYESRNKNSVA | WASVRES | QQYHRLPLS | Ctrl
330 pM | 6/6 | 1/18 | KVQQSVLYESRNKNSVA | DASQRES | QQYHRLPLS | GP_Gen
500 pM | 6/6 | 1/18 | KSSQVYPYESRNKNSVA | GASTRES | QQYHRLPLS | GP_HC
74 nM | 4/6 | 0/18 | KITMSQYNWTSRYQAVA | EQNMRAR | QSYYRLPFS | En_Gibbs
310 pM | 6/6 | 1/18 | KVQQSWLYESRNKNSVA | NASERES | QQYHRLPLS | GP_Gen
1.1 nM | 6/6 | 1/18 | KSSQSDLYESRNKNSVA | EASTREQ | QQYHRLPLS | GP_Gen
710 pM | 6/6 | 1/18 | KCLQSVLYESRNKNSVA | EASTRED | QQYHRLPLS | GP_HC
8.4 nM | 6/6 | 1/18 | FSLQSQLYESRNFNSVA | HASTRED | QQYHRLPLS | GP_HC
3.8 nM | 6/6 | 0/18 | KLPQEMLYESRMDNSVA | NASQREE | QQYHRLPLS | GP_Gibbs
50 nM | 6/6 | 0/18 | LIKGMVDGQYYWQNNIA | DSEERDR | QQYNQLPLS | En_Gibbs
12 nM | 6/6 | 2/18 | HITYGMNVAGRHSSSIA | QAETREK | QQYDRLPLE | En_Gen
610 pM | 6/6 | 1/18 | KSEMLVYYGDRNKNSVA | QASTRES | QQYHRLPLS | GP_Gibbs
360 nM | 6/6 | 0/18 | KSSQSVSYESQNKNSVA | WASTRES | QQYHRLPLS | Ctrl
2.0 nM | 6/6 | 0/18 | HSSPSQLYESRNKNSVA | NASTRES | QQYHRLPLS | GP_HC
2.4 nM | 6/6 | 2/18 | KVSESQDYESRNFNSVA | NASTREE | QQYHRLPLS | GP_Gibbs
3.4 nM | 6/6 | 0/18 | KVPQSHLYESRNKNSVA | QASTRES | QQYHRLPLS | GP_Gen
58 nM | 6/6 | 1/18 | HISMMVGTKGYNKNSVA | NAETREN | QQYHRLPLS | En_HC
950 pM | 6/6 | 3/18 | KLSQSMDYESRNKNSVA | NASTRLS | QQYHRLPLS | GP_Gen
1.1 nM | 6/6 | 1/18 | KLQQSKLYESRNKNSVA | NASTRLS | QQYHRLPLS | GP_Gen
4.3 nM | 6/6 | 0/18 | KSSQSWLYESRNFWSVA | GASTRES | QQYHRLPLS | GP_HC
24 nM | 6/6 | 1/18 | KVGEMMAFLSSNRNSVA | DNSTRGS | QQYHRLPLS | En_HC
not detected | 0/6 | 0/18 | VSSQSVYYESRNKNSVA | RASTREC | QQYHRLPLS | Ctrl
2.3 nM | 6/6 | 0/18 | TLSQLDDMTSRNVNSVA | DLTTRGN | QQYHRLPLS | En_HC
83 nM | 6/6 | 0/18 | KLRMSTGYESRNEDSIA | DNSTRGR | QQYHRLPLS | En_HC
9.1 nM | 6/6 | 1/18 | KISQSVLTESRNKNSVA | AASTRES | QQYHWLPLS | Ctrl

The 13 strongest on average among those seen in every replicate, once more:

{"CDR-L1": "KSPISFLYESRNKNSVA", "CDR-L2": "EASTRES", "CDR-L3": "QQYHRLPLS", "group": "GP_HC", "Kd": "300 pM", "replicates with signal": "6/6", "control signals": "0/18"}
{"CDR-L1": "KVQQSWLYESRNKNSVA", "CDR-L2": "NASERES", "CDR-L3": "QQYHRLPLS", "group": "GP_Gen", "Kd": "310 pM", "replicates with signal": "6/6", "control signals": "1/18"}
{"CDR-L1": "KVQQSVLYESRNKNSVA", "CDR-L2": "DASQRES", "CDR-L3": "QQYHRLPLS", "group": "GP_Gen", "Kd": "330 pM", "replicates with signal": "6/6", "control signals": "1/18"}
{"CDR-L1": "KSEMEVYYGDRNKNSVA", "CDR-L2": "QASTRES", "CDR-L3": "QQYHRLPLS", "group": "GP_Gibbs", "Kd": "450 pM", "replicates with signal": "6/6", "control signals": "1/18"}
{"CDR-L1": "KSSQVYPYESRNKNSVA", "CDR-L2": "GASTRES", "CDR-L3": "QQYHRLPLS", "group": "GP_HC", "Kd": "500 pM", "replicates with signal": "6/6", "control signals": "1/18"}
{"CDR-L1": "KFSQSWLYESRNKNAVA", "CDR-L2": "NASQRES", "CDR-L3": "QQYHRLPLS", "group": "GP_Gen", "Kd": "600 pM", "replicates with signal": "6/6", "control signals": "0/18"}
{"CDR-L1": "KLSQSNLYESRNKNSVA", "CDR-L2": "EASTREV", "CDR-L3": "QQYHRLPLS", "group": "GP_Gen", "Kd": "610 pM", "replicates with signal": "6/6", "control signals": "0/18"}
{"CDR-L1": "KSEMLVYYGDRNKNSVA", "CDR-L2": "QASTRES", "CDR-L3": "QQYHRLPLS", "group": "GP_Gibbs", "Kd": "610 pM", "replicates with signal": "6/6", "control signals": "1/18"}
{"CDR-L1": "KSSQSWLYESRNKNSVA", "CDR-L2": "GASTREM", "CDR-L3": "QQYHRLPLS", "group": "GP_HC", "Kd": "630 pM", "replicates with signal": "6/6", "control signals": "1/18"}
{"CDR-L1": "KLQQSFLYESRNKNSVA", "CDR-L2": "NASYRES", "CDR-L3": "QQYHRLPLS", "group": "GP_Gen", "Kd": "640 pM", "replicates with signal": "6/6", "control signals": "0/18"}
{"CDR-L1": "KCLQSVLYESRNKNSVA", "CDR-L2": "EASTRED", "CDR-L3": "QQYHRLPLS", "group": "GP_HC", "Kd": "710 pM", "replicates with signal": "6/6", "control signals": "1/18"}
{"CDR-L1": "KLSQSMDYESRNKNSVA", "CDR-L2": "NASTRLS", "CDR-L3": "QQYHRLPLS", "group": "GP_Gen", "Kd": "950 pM", "replicates with signal": "6/6", "control signals": "3/18"}
{"CDR-L1": "KLPQSGLYESRNKNSVA", "CDR-L2": "NASTRLS", "CDR-L3": "QQYHRLPLS", "group": "GP_Gen", "Kd": "1.1 nM", "replicates with signal": "6/6", "control signals": "0/18"}

Source: Li et al. 2023 (doi:10.1038/s41467-023-39022-2), MIT Lincoln Laboratory and A-Alpha Bio; data file from the FLAb repository.